Assay results as given in US5883243A, “Non-reducing saccharides, their preparations and uses” (Kabushiki Kaisha Hayashibara Seibutsu Kagaku Kenkyujo, priority 1997, dated 1999).

Test system: crude glucosyltransferase specimen derived from Streptococcus sobrinus strain (ATCC 27351)
Test: Inhibition of insoluble glucan formation by glucosyltransferase from dental caries-inducing microorganism
Format: biochemical
Settings: sucrose plus test saccharide (one ml of one w/v % each), pH 6.8, 37° C., 16 hours
Protocol: To a mixture solution consisting of one ml of one w/v % sucrose solution, one ml of one w/v % of a test saccharide solution, and 1.5 ml of 0.1M phosphate buffer (pH 6.8) was added 0.5 ml solution containing a crude glucosyltransferase specimen in a total protein content of 10 mg, and the mixture solution was placed in a small test tube which was then fixed and slanted to give a grade 30 degrees and allowed to react at 37° C. for 16 hours. The reaction mixture was transferred gently to another test tube and mixed with a solution obtained by washing carefully with 4 ml water the remaining substances adhered to the inner walls of the small test tube, and the mixture solution was centrifuged to obtain a precipitate as a non-adsorbed glucan. The amounts of the adsorbed- and non-adsorbed glucans thus obtained were respectively quantified by the anthrone-sulfuric acid method, and the total amount of them was regarded as the amount of the formed insoluble glucans. As a control system, a reaction system using water in place of the test saccharide solution, i.e. a reaction system using sucrose as a saccharide, was provided. […]

OC[C@H]1O[C@H](OC[C@H]2OC(O)[C@H](O)[C@@H](O)[C@@H]2O)[C@H](O)[C@@H](O)[C@@H]1O (some centres unmarked) [Isomaltose, isomaltose, reference compound]
Yield of non-adsorbed glucans (sucrose alone 923): 305 µg/mL | Yield of adsorbed glucans (sucrose alone 1,160): 67 µg/mL
